Measured values from ChEMBL document CHEMBL2385020, “Evaluation of N-phenyl homopiperazine analogs as potential dopamine D3 receptor selective ligands” (Bioorg Med Chem, 2013).

Organism: Homo sapiens
Test: Selectivity ratio of Ki for human dopamine D2L receptor to Ki for human dopamine D3 receptor
In short: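 Non-specific binding defined with 20 μM (+)-butaclamol. Ki from at least three experiments. Ratio taken as D2 Ki over D3 Ki.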
In the case of `COc1ccccc1N1CCCN(CCCCNC(=O)c2ccc(F)cc2)CC1`, the Ratio Ki was 11. Compound `COc1ccccc1N1CCCN(CCCCNC(=O)c2cc3ccccc3[nH]2)CC1` has a Ratio Ki of 56. `COc1ccccc1N1CCCN(CCCCNC(=O)c2ccc(SC)cc2)CC1` showed a Ratio Ki of 35. `COc1ccccc1N1CCCN(CCCCNC(=O)c2ccc(Cl)cc2)CC1` showed a Ratio Ki of 30. For `COc1ccccc1N1CCCN(CCCCNC(=O)c2ccc(Br)nc2)CC1`, the Ratio Ki was 8. With `COc1ccccc1N1CCCN(CCCCNC(=O)c2ccc(Cl)nc2)CC1` the Ratio Ki was 8. For `COc1ccccc1N1CCCN(CCCCNC(=O)c2ccc(CCO)cc2)CC1`, the Ratio Ki was 11.
